Here are results for 32 compounds from patent US20250195530A1, “POLQ INHIBITORS” (ASTRAZENECA AB, priority 2022, published 2025).

Amino acid sequences for entries named in this document (tags omitted). Residues count along the entry.
UniProt O75417, 1780-2590: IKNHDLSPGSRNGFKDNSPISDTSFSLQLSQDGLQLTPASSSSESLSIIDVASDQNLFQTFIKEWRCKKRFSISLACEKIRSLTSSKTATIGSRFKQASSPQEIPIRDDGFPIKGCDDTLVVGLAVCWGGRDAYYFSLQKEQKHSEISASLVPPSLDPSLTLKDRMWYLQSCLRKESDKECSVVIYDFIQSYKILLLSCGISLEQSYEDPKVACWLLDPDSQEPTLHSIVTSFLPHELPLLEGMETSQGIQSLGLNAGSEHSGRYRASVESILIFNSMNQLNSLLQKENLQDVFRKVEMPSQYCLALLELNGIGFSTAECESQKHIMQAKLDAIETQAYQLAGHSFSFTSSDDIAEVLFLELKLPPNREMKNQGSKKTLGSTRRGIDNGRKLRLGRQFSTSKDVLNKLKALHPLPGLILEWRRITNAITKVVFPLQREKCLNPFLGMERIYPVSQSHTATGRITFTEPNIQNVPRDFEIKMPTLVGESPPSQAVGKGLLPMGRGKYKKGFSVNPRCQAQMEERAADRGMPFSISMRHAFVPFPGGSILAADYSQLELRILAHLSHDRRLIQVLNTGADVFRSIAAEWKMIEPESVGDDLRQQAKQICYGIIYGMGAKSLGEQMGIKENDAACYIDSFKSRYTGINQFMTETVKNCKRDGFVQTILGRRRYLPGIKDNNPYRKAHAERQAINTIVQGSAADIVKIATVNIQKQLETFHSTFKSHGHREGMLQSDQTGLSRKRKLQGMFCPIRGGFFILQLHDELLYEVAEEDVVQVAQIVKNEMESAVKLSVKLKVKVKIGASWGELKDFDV

This test deals with isolated polymerase domain (I1780-V2590) of DNA polymerase theta (Polθ) (Homo sapiens (Human), UniProt O75417). As to the kind of experiment: biochemical.

For the compound `Cc1ccc(Cn2c(-c3ccc(CC(N)=O)cc3Cl)nc3c(OC4(C)CC4)ncnc32)cc1` [Example T100, 2-(3-chloro-4-(9-(4-methylbenzyl)-6-(1-methylcyclopropoxy)-9H-purin-8-yl)phenyl)acetamide], the midpoint of inhibition, the IC50, lay at 10 nM.

Take `Cc1ccccc1Cn1c(-c2ccc(CC(N)=O)cc2Cl)nc2c(OC3(C)CC3)ncnc21` [Example T101, 2-(3-chloro-4-(9-(2-methylbenzyl)-6-(1-methylcyclopropoxy)-9H-purin-8-yl)phenyl)acetamide]: the IC50 (usually the concentration needed to halve the response being measured) was 7.94 nM.

For `CC1(Oc2ncnc3c2nc(-c2ccc(CC(N)=O)cc2Cl)n3CCc2ccccc2)CC1` [Example T102, 2-(3-chloro-4-(6-(1-methylcyclopropoxy)-9-phenethyl-9H-purin-8-yl)phenyl)acetamide], the IC50 was 15.8 nM.

In turn, `Cc1ccnc(Cn2c(-c3ccc(OC4COC4)cc3Cl)nc3c(OC4(C)CC4)ncnc32)c1` [Example T103, 8-(2-chloro-4-(oxetan-3-yloxy)phenyl)-6-(1-methylcyclopropoxy)-9-((4-methylpyridin-2-yl)methyl)-9H-purine] gave a concentration for half-maximal inhibition (IC50) of 6.31 nM.

`CC(=O)COc1ccc(-c2nc3c(OC4(C)CC4)ncnc3n2Cc2cc(C)ccn2)c(Cl)c1` [Example T104, 1-(3-chloro-4-(6-(1-methylcyclopropoxy)-9-((4-methylpyridin-2-yl)methyl)-9H-purin-8-yl)phenoxy)propan-2-one] showed an IC50 of 6.31 nM.

The compound `COc1cccc(Cn2c(-c3ccc(CC(N)=O)cc3Cl)nc3c(OC4(C)CC4)ncnc32)c1` [Example T105, 2-(3-chloro-4-(9-(3-methoxybenzyl)-6-(1-methylcyclopropoxy)-9H-purin-8-yl)phenyl)acetamide] had an IC50 of 7.94 nM.

The compound `COc1ccc(Cn2c(-c3ccc(CC(N)=O)cc3Cl)nc3c(OC4(C)CC4)ncnc32)cc1` [Example T106, 2-(3-chloro-4-(9-(4-methoxybenzyl)-6-(1-methylcyclopropoxy)-9H-purin-8-yl)phenyl)acetamide] had an IC50 of 15.8 nM.

Regarding `Cc1ccnc(Cn2c(-c3ccc(N4CCNC4=O)cc3Cl)nc3c(OC4(C)CC4)ncnc32)c1` [Example T107, 1-(3-chloro-4-(6-(1-methylcyclopropoxy)-9-((4-methylpyridin-2-yl)methyl)-9H-purin-8-yl)phenyl)imidazolidin-2-one], half-maximal inhibition (IC50) was put at 6.31 nM.

The compound `Cc1ccnc(Cn2c(-c3ccc(OCCCF)cc3Cl)nc3c(OC4(C)CC4)ncnc32)c1` [Example T108, 8-(2-chloro-4-(3-fluoropropoxy)phenyl)-6-(1-methylcyclopropoxy)-9-((4-methylpyridin-2-yl)methyl)-9H-purine] gave an IC50 of 5.01 nM.

For the compound `Cc1ccnc(Cn2c(-c3ccc(OC4CNC4)cc3Cl)nc3c(OC4(C)CC4)ncnc32)c1` [Example T111, 8-(4-(azetidin-3-yloxy)-2-chlorophenyl)-6-(1-methylcyclopropoxy)-9-((4-methylpyridin-2-yl)methyl)-9H-purine], the concentration for half-maximal inhibition (IC50) is 6.31 nM.

As to `Cc1ccnc(Cn2c(-c3ccc(C(=O)N(C)C)cc3Cl)nc3c(OC4(C)CC4)ncnc32)c1` [Example T112, 3-chloro-N,N-dimethyl-4-(6-(1-methylcyclopropoxy)-9-((4-methylpyridin-2-yl)methyl)-9H-purin-8-yl)benzamide], the IC50 is 10 nM.

The compound `CNC(=O)Cc1ccc(-c2nc3c(OC4(C)CC4)ncnc3n2Cc2cc(C)ccn2)c(Cl)c1` [Example T113, 2-(3-chloro-4-(6-(1-methylcyclopropoxy)-9-((4-methylpyridin-2-yl)methyl)-9H-purin-8-yl)phenyl)-N-methylacetamide] had an IC50 of 7.94 nM.

For the compound `CCNC(=O)c1ccc(-c2nc3c(OC4(C)CC4)ncnc3n2Cc2cc(C)ccn2)c(Cl)c1` [Example T114, 3-chloro-N-ethyl-4-(6-(1-methylcyclopropoxy)-9-((4-methylpyridin-2-yl)methyl)-9H-purin-8-yl)benzamide], the IC50 is 15.8 nM.

As for `Cc1ccnc(Cn2c(-c3ccc(N4CC(O)C4)cc3Cl)nc3c(OC4(C)CC4)ncnc32)c1` [Example T115, 1-(3-chloro-4-(6-(1-methylcyclopropoxy)-9-((4-methylpyridin-2-yl)methyl)-9H-purin-8-yl)phenyl)azetidin-3-ol], the IC50 is 6.31 nM.

`Cc1ccnc(Cn2c(-c3ccc(CCC(N)=O)cc3Cl)nc3c(OC4(C)CC4)ncnc32)c1` [Example T116, 3-(3-chloro-4-(6-(1-methylcyclopropoxy)-9-((4-methylpyridin-2-yl)methyl)-9H-purin-8-yl)phenyl)propanamide] had an IC50 of 7.94 nM.

Compound `Cc1cccnc1CCn1c(-c2ccc(CC(N)=O)cc2Cl)nc2c(OC3(C)CC3)ncnc21` [Example T117, 2-(3-chloro-4-(6-(1-methylcyclopropoxy)-9-(2-(3-methylpyridin-2-yl)ethyl)-9H-purin-8-yl)phenyl)acetamide] had an IC50 of 1260 nM.

On to `CNC(=O)COc1ccc(-c2nc3c(OC4(C)CC4)ncnc3n2Cc2cc(C)ccn2)c(Cl)c1` [Example T118, 2-(3-chloro-4-(6-(1-methylcyclopropoxy)-9-((4-methylpyridin-2-yl)methyl)-9H-purin-8-yl)phenoxy)-N-methylacetamide], for which the IC50 was 5.01 nM.

`Cc1ccnc(Cn2c(-c3ccc(C(=O)NCCO)cc3Cl)nc3c(OC4(C)CC4)ncnc32)c1` [Example T119, 3-chloro-N-(2-hydroxyethyl)-4-(6-(1-methylcyclopropoxy)-9-((4-methylpyridin-2-yl)methyl)-9H-purin-8-yl)benzamide] had an IC50 of 12.6 nM.

Regarding `CNC(=O)COc1cccc(-c2nc3c(OC4(C)CC4)ncnc3n2Cc2cc(C)ccn2)c1Cl` [Example T120, 2-(2-chloro-3-(6-(1-methylcyclopropoxy)-9-((4-methylpyridin-2-yl)methyl)-9H-purin-8-yl)phenoxy)-N-methylacetamide], it took 6.31 nM to reach half-maximal inhibition (IC50).

`Cc1ccnc(Cn2c(-c3ccc(NC(=O)[C@@H](C)O)cc3Cl)nc3c(OC4(C)CC4)ncnc32)c1` [Example T121, (R)-N-(3-chloro-4-(6-(1-methylcyclopropoxy)-9-((4-methylpyridin-2-yl)methyl)-9H-purin-8-yl)phenyl)-2-hydroxypropanamide]: the IC50 is 5.01 nM.

`CNC(=O)COc1ccc(Cl)c(-c2nc3c(OC4(C)CC4)ncnc3n2Cc2cc(C)ccn2)c1` [Example T122, 2-(4-chloro-3-(6-(1-methylcyclopropoxy)-9-((4-methylpyridin-2-yl)methyl)-9H-purin-8-yl)phenoxy)-N-methylacetamide] gave an IC50 of 158 nM.

In the case of `Cc1ccnc(Cn2c(-c3ccc(NC(=O)OCCO)cc3Cl)nc3c(OC4(C)CC4)ncnc32)c1` [Example T123, 2-hydroxyethyl (3-chloro-4-(6-(1-methylcyclopropoxy)-9-((4-methylpyridin-2-yl)methyl)-9H-purin-8-yl)phenyl)carbamate], the IC50 is 6.31 nM.

Regarding `Cc1ccnc(Cn2c(-c3ccc(OCCCO)cc3Cl)nc3c(OC4(C)CC4)ncnc32)c1` [Example T124, 3-(3-chloro-4-(6-(1-methylcyclopropoxy)-9-((4-methylpyridin-2-yl)methyl)-9H-purin-8-yl)phenoxy)propan-1-ol], the midpoint of inhibition, the IC50, lay at 6.31 nM.

Take `COCCOc1ccc(-c2nc3c(OC4(C)CC4)ncnc3n2Cc2cc(C)ccn2)c(Cl)c1` [Example T125, 8-(2-chloro-4-(2-methoxyethoxy)phenyl)-6-(1-methylcyclopropoxy)-9-((4-methylpyridin-2-yl)methyl)-9H-purine]: the IC50 is 7.94 nM.

`Cc1ccnc(Cn2c(-c3ccc(OCCS(C)(=O)=O)cc3Cl)nc3c(OC4(C)CC4)ncnc32)c1` [Example T129, 8-(2-chloro-4-(2-(methylsulfonyl)ethoxy)phenyl)-6-(1-methylcyclopropoxy)-9-((4-methylpyridin-2-yl)methyl)-9H-purine] gave an IC50 of 6.31 nM.

Take `Cc1ccnc(Cn2c(-c3ccc(NC(=O)N(C)C)cc3Cl)nc3c(OC4(C)CC4)ncnc32)c1` [Example T130, 3-(3-chloro-4-(6-(1-methylcyclopropoxy)-9-((4-methylpyridin-2-yl)methyl)-9H-purin-8-yl)phenyl)-1,1-dimethylurea]: half-maximal inhibition (IC50) required 5.01 nM.

`CNC(=O)CNc1ccc(-c2nc3c(OC4(C)CC4)ncnc3n2Cc2cc(C)ccn2)c(Cl)c1` [Example T131, 2-((3-chloro-4-(6-(1-methylcyclopropoxy)-9-((4-methylpyridin-2-yl)methyl)-9H-purin-8-yl)phenyl)amino)-N-methylacetamide] had an IC50 of 6.31 nM.

Turning to `Cc1ccnc(Cn2c(-c3ccc(NC(=O)NCCO)cc3Cl)nc3c(OC4(C)CC4)ncnc32)c1` [Example T132, 1-(3-chloro-4-(6-(1-methylcyclopropoxy)-9-((4-methylpyridin-2-yl)methyl)-9H-purin-8-yl)phenyl)-3-(2-hydroxyethyl)urea], the IC50 was 5.01 nM.

`Cc1ccnc(Cn2c(-c3ccc(OCCNC(N)=O)cc3Cl)nc3c(OC4(C)CC4)ncnc32)c1` [Example T133, 1-(2-(3-chloro-4-(6-(1-methylcyclopropoxy)-9-((4-methylpyridin-2-yl)methyl)-9H-purin-8-yl)phenoxy)ethyl)urea] gave an IC50 of 2.51 nM.

As for `CNCCCOc1ccc(-c2nc3c(OC4(C)CC4)ncnc3n2Cc2cc(Cl)ccn2)c(Cl)c1` [Example T134, 3-(3-chloro-4-(9-((4-chloropyridin-2-yl)methyl)-6-(1-methylcyclopropoxy)-9H-purin-8-yl)phenoxy)-N-methylpropan-1-amine], the IC50 was 7.94 nM.

The compound `CN(C)CCOc1ccc(-c2nc3c(OC4(C)CC4)ncnc3n2Cc2cc(Cl)ccn2)c(Cl)c1` [Example T135, 2-(3-chloro-4-(9-((4-chloropyridin-2-yl)methyl)-6-(1-methylcyclopropoxy)-9H-purin-8-yl)phenoxy)-N,N-dimethylethan-1-amine] gave an IC50 of 7.94 nM.

On to `Cc1ccnc(Cn2c(-c3ccc(CN(C)C)cc3Cl)nc3c(OC4(C)CC4)ncnc32)c1` [Example T136, 1-(3-chloro-4-(6-(1-methylcyclopropoxy)-9-((4-methylpyridin-2-yl)methyl)-9H-purin-8-yl)phenyl)-N,N-dimethylmethanamine], for which the IC50 was 6.31 nM.
